The test concerns the target anti-dansyl mouse IgG2a(κ) variant with shorter heavy chains devoid of the CH1 domain (mouse). The experiment in a line: high-speed atomic force microscopy (HS-AFM); single-molecule dwell (binding) times of C1 or C1q on sparsely distributed antibodies on bare mica, no antigen; TNC buffer, 25 °C.

The values that follow come from paper PMC8876274.

In turn, “complement component C1 complex composed of C1q, C1r and C1s (from UniProt P02745 23-245; P02746 28-253; P02747 29-245)” came in with a residence time of more than 10 s and a stoichiometry N of 1. As for “complement component C1q (from UniProt P02745 23-245; P02746 28-253; P02747 29-245) (complex)”, the stoichiometry N was determined as 1.
